# Test results as given in PMC7047604 (Journal of medicinal chemistry, 2020).
# Assays:
# in vitro = conditions: mouse, microsomes, pH 7.4, metabolic half-life in MLM, abstract statement
# male C57BL/6 mice = conditions: mouse, in vivo
SMILES,half-life at 1 μM (in vitro),antinociception in AASA at 10 mg/kg (male C57BL/6 mice)
"CCOc1ccc(CN2Cc3ccccc3C2)cc1CNC(=O)[C@@H](N)Cc1c(C)cc(O)cc1C.O=C(O)C(F)(F)F [Compound 17, (S)-1-((2-ethoxy-5-(isoindolin-2-ylmethyl)benzyl)amino)-3-(4-hydroxy-2,6-dimethylphenyl)-1-oxopropan-2-aminium trifluoroacetate]",> 1 h,–
"CCOc1ccc(CN2CCc3ccccc3C2)cc1CNC(=O)[C@@H](N)Cc1c(C)cc(O)cc1C.O=C(O)C(F)(F)F [Compound 18, (S)-1-((5-((3,4-dihydroisoquinolin-2(1H)-yl)methyl)-2-ethoxybenzyl)amino)-3-(4-hydroxy-2,6-dimethylphenyl)-1-oxopropan-2-aminium trifluoroacetate]",–,showed antinociception
"CCOc1ccc(CNCc2ccccc2)cc1CNC(=O)[C@@H](N)Cc1c(C)cc(O)cc1C.O=C(O)C(F)(F)F [Compound 19, (S)-1-((5-((benzylamino)methyl)-2-ethoxybenzyl)amino)-3-(4-hydroxy-2,6-dimethylphenyl)-1-oxopropan-2-aminium trifluoroacetate]",–,showed antinociception
